# Reference: patent US10709790B2, “Chemical conjugates of Evans Blue derivatives and their use in the production of long-acting therapeutics” (THE UNITED STATES OF AMERICA, AS REPRESENTED BY THE …, priority 2015, dated 2020)
# Experiment: Dynamic small animal PET imaging, time activity curves over the heart region
# Settings: TACs over heart region, two-phase exponential fit, tail vein injection of 18F tracer
substance,measurement,value
Exendin-4,3 phase half-life (tβ1/2),5.88 h
